# Screening data: PubChem, several laboratories
# Most compounds without a hit are left out; they make up all but 4.2% or so of the library.
# ALR inh: inhibitors of human ALR sulfhydryl oxidase, primary screen, biochemical, H2O2 detection, HRP-luminol luminescence, single point | AID 485317, 2010 | inhibition, % (test concentration not listed) | purified ALR, DTT oxidation | FAD-linked sulfhydryl oxidase ALR (Homo sapiens), P55789 | hit rate 3.8% among 290,000;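 active = mean and each replicate at 75% or more; inconclusive = only one of the two met; inactive = neither met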;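 also: stock transfer was 7.5 nL into about 7.5 µL; 0% = neutral wells and 100% = wells with inactivated enzyme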
# MC4R antagonist: antagonists of human melanocortin 4 receptor (MC4R). 360,000 tested, 0.48% active. MC4R-expressing cells, MTII-stimulated cAMP, LANCE TR-FRET. AID 540295. inhibition, % at 6.5 µM;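 active means inhibition above its plate's cutoff, the mean of tested wells on that plate plus 3 SD, cut at about 29% in these data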
#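 Material: U2OS-MC4R stable cell line | Reagent: Melanotan II challenge after compound preincubation | Doses: One concentration, 6.5 µM nominal | Incubation: 30-min compound preincubation, 1-h Melanotan II challenge, 1-h detection, room temperature | Signal: TR-FRET cAMP assay | Replicates: One well per compound, no replicates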
# MC4R ag barr: agonists of human melanocortin 4 receptor (MC4R) beta-arrestin; P32245; U2OS MC4R beta-arrestin complementation, luminescence; percent of melanotan II response, DMSO zero; activation, % at 8.9 µM; 360,000 tested, 0.98% active; AID 540308;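 active means activation above a per-plate cutoff, the mean activation of sample wells on that plate plus 3 SD, cut at about 8% in these data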
# HDAC3 inh: human HDAC3 inhibition | O15379 | recombinant HDAC3, fluorogenic peptide/trypsin coupled, fluorescence | inhibition, % at 8.3 µM | 320,000 tested, 0.15% active; in the data active means inhibition above about 26%, passing the limit was not always enough
# Yeast UUG start: yeast start codon fidelity modulation | S. cerevisiae UUG-firefly luciferase reporter, luminescence/redox ratio | activity score, % at 18.7 µM | hit rate 0.13% among 350,000 | AID 602363;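 active means replicate mean at a twofold rise or more, about +100% in these data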;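 further: firefly luciferase made from a UUG start codon reports start codon fidelity; reporter light over untreated wells divided by growth signal over untreated wells; some hits fall short of that in this replicate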
# NALP1 yeast inh: NALP1 inhibition; 280,000 tested, 0.61% active; S. cerevisiae NALP1/ASC/caspase-1 growth, X-gal OD620, 72 h; AID 2071; inhibition, % at 10 µM; in the data active means inhibition mostly above about 24%, no sharp cut-off; inactive means mostly below about 32%
# Hits are given with their value; i = inactive; nt = not tested or not shown.
SMILES,ALR inh,MC4R antagonist,MC4R ag barr,HDAC3 inh,Yeast UUG start,NALP1 yeast inh
COc1ccc(OC)c(-c2csc(CCn3nc(C)cc3C)n2)c1,nt,i,i,i,i,i
N#Cc1c(N)n[nH]c1-c1cc2c([nH]1)CCCC2,98.4,i,i,i,i,i
O=C(C[C@H]1C=C[C@@H](NC(=O)Nc2ccc3c(c2)OCO3)[C@H](CO)O1)NCc1ccc(Cl)cc1,nt,nt,nt,nt,i,nt
CC(C)NC(=O)N[C@@H]1CC[C@@H](CCNC(=O)C2CCOCC2)O[C@H]1CO,nt,nt,nt,nt,i,nt
C[C@H]1CN([C@@H](C)CO)C(=O)c2cc(C#CCN(C)C)cnc2O[C@H]1CN(C)Cc1cccc(F)c1,nt,nt,nt,nt,i,nt
N#Cc1c(-c2ccccc2)cc(-c2cccs2)nc1SCC(=O)O,98.6,i,i,i,i,i
CCOc1ccc2nc(SCC(=O)c3ccc(O)cc3O)sc2c1,i,i,8.5,i,i,i
CCOc1ccc2nc(SCC(=O)c3ccc(C)s3)sc2c1,i,i,i,i,i,i
COc1ccc2nc(NC(=O)CSC3=NCCS3)sc2c1,98.3,i,i,i,i,i
COc1ccc2nc(NC(=O)CSc3ccccc3)sc2c1,i,i,i,i,i,i
COc1cccc(C(=O)SC2=NCCS2)c1,i,i,i,48.7,nt,i
CCOc1ccc2nc(NC(=O)CSC3=NCCS3)sc2c1,98.9,i,i,i,i,i
COc1ccc(-c2nc3n(c2C)Cc2ccccc2-3)cc1,99.0,i,i,i,nt,i
O=c1cc(-c2ccccc2)nc2n1Cc1ccccc1-2,i,i,i,i,i,i
Cc1oc(-c2ccccc2)nc1CS(=O)CC(=O)NC1CCCCCC1 (stereo unspecified),99.7,i,i,i,i,i
Cc1oc(-c2ccccc2)nc1CS(=O)CC(=O)O (stereo unspecified),nt,i,i,i,i,i
Cc1cccc(-c2nc(CS(=O)CC(=O)NCCCSC3CCCCC3)c(C)o2)c1 (stereo unspecified),i,i,i,i,i,i
Cc1cccc(-c2nc(CS(=O)CC(=O)NC3CCCCC3)c(C)o2)c1 (stereo unspecified),99.0,i,i,i,i,i
C[C@H](CO)N1C[C@H](C)[C@@H](CN(C)C(=O)c2ccc(F)cc2)Oc2cc(C3=CCCCC3)ccc2S1(=O)=O,nt,nt,nt,nt,i,nt
Cc1ccc(-c2cc(C(F)(F)F)nn2-c2ccc(S(N)(=O)=O)cc2)cc1,i,i,8.5,i,i,i
NS(=O)(=O)c1ccc(-n2nc(C(=O)O)cc2-c2ccc(Cl)cc2)cc1,i,i,i,i,nt,i
C(=N\Nc1ccc(-n2ccnc2)nn1)/c1ccccc1,nt,i,i,i,i,44.0
CCn1cc(Br)c(C(=O)Nc2cccc(SC)c2)n1,98.6,i,i,nt,i,i
CCn1cc(Br)c(C(=O)Nc2ccc(F)cc2F)n1,i,i,i,i,nt,nt
O=C(NC1CCCC1)c1ccc(CS(=O)(=O)Cc2ccccc2Cl)o1,i,i,i,i,i,i
SMILES,ALR inh,MC4R antagonist,MC4R ag barr,HDAC3 inh,Yeast UUG start,NALP1 yeast inh
O=C(NC1CC1)c1ccc(CSCc2ccccc2Cl)o1,83.8,i,i,i,i,i
Cc1ccccc1-c1ccc2c(c1)O[C@H](CN(C)C(=O)C1CC1)[C@H](C)CN([C@H](C)CO)S2(=O)=O,nt,nt,nt,nt,i,nt
Cc1ccn2c(-c3n[nH]c(=S)n3C)c(C)nc2c1,95.2,i,i,i,i,i
CCc1cc(-c2n[nH]c(=S)n2C(C)c2ccccc2)cs1 (stereo unspecified),94.1,i,i,i,nt,nt
CC(c1ccccc1)n1c(-c2ccc(C(C)(C)C)cc2)n[nH]c1=S (stereo unspecified),i,i,i,i,i,i
Cc1scc(-c2n[nH]c(=S)n2C(C)c2ccccc2)c1C (stereo unspecified),83.1,i,i,i,i,i
C[C@H]1CN([C@@H](C)CO)S(=O)(=O)c2ccc(C#CC3CC3)cc2O[C@H]1CN(C)C(=O)c1ccncc1,nt,nt,nt,nt,i,nt
CO[C@@H]1CN(C)C(=O)c2ccc(NS(=O)(=O)c3cn(C)cn3)cc2OC[C@@H](C)N(C)C[C@H]1C,nt,nt,nt,nt,i,nt
O=C(Oc1cc(-c2ccccc2)no1)c1cccc(C(F)(F)F)c1,i,i,i,i,i,43.1
O=C(NCC[C@@H]1CC[C@H](NS(=O)(=O)c2cccc(F)c2)[C@@H](CO)O1)C1CCCC1,nt,nt,nt,nt,i,nt
C[C@@H]1CCCCO[C@H](CN(C)Cc2ccc3c(c2)OCO3)[C@H](C)CN([C@H](C)CO)C(=O)c2cc(NC(=O)Nc3ccc(F)cc3)ccc2O1,nt,nt,nt,nt,i,nt
CCNC(=O)C[C@@H]1CC[C@@H]2[C@@H](COc3ccc(NC(=O)Nc4cccc(Cl)c4)cc3C(=O)N2C)O1,nt,nt,nt,nt,i,nt
O=C(O/N=C(/c1ccccc1)c1ccncc1)c1ccc(F)cc1,i,i,i,30.9,nt,i
COc1ccc(N2C(=O)CC(N3CCC(c4nc5ccccc5[nH]4)CC3)C2=O)cc1 (stereo unspecified),i,i,i,i,i,i
O=C1CC(N2CCC(c3nc4ccccc4[nH]3)CC2)C(=O)N1c1ccccc1F (stereo unspecified),i,i,i,i,i,31.5
c1ccc(-c2ccc(-c3cn4c(n3)CCC4)cc2)cc1,nt,i,i,i,i,51.3
COc1ccc(-c2cn3c(n2)CCC3)cc1,i,i,i,i,i,i
COc1ccc(S(=O)(=O)Nc2ccc3c(c2)C(=O)N([C@@H](C)CO)C[C@H](C)[C@@H](CN(C)S(=O)(=O)c2c(C)noc2C)OCCCC[C@H](C)O3)cc1,nt,nt,nt,nt,i,nt
O=C(Nc1ccc(F)c(F)c1)c1cnc(-c2ccccc2)nc1-c1ccccc1,i,i,8.7,i,i,i
Cc1noc(C)c1S(=O)(=O)Nc1cccc2c1O[C@H](CN(C)Cc1ccc3c(c1)OCO3)[C@H](C)CN([C@H](C)CO)C2=O,nt,nt,nt,nt,i,nt
COc1ccc(Nc2ccnc(Nc3ccc(OC)cc3)n2)cc1,97.6,i,i,i,nt,i
Cc1cccc(Nc2nc3c(s2)CCCC3)c1,96.2,i,i,i,i,i
O=C(O)c1ccc(Nc2nc3c(s2)CCCC3)cc1,i,i,i,i,nt,i
Cc1ccc(C(=O)Nc2ccccc2N2CCCC2)cc1S(=O)(=O)N1CCOCC1,98.3,i,i,i,i,nt
COc1ccc(C(=O)Nc2ccc(N3CCCCCC3)cc2)cc1S(=O)(=O)N1CCOCC1,97.7,i,i,i,nt,nt
O=C(Nc1ccccc1O)c1cc(S(=O)(=O)N2CCOCC2)ccc1Cl,i,i,i,i,i,i
O=C(Nc1ccccc1O)c1cc(S(=O)(=O)N2CCOCC2)c(Cl)cc1Cl,90.4,i,i,i,i,i
COc1ccc(S(=O)(=O)N2CCC(C(=O)Nc3ccccc3N3CCCC3)CC2)cc1OC,96.9,i,i,i,i,i
CC(C)CC#Cc1cnc2c(c1)C(=O)N([C@@H](C)CO)C[C@@H](C)[C@H](CN(C)Cc1ccccc1F)O2,nt,nt,nt,nt,i,nt
